# PMC9377102, “Toxicity and toxicokinetics of the ethanol extract of Zuojin formula” (BMC Complementary Medicine and Therapies, 2022)
# Assay: Toxicokinetics test in the satellite groups (UPLC-MS/MS of rat plasma)
# Type: in vivo
# Conditions: rats after oral TAZF; detection limit
# Procedure: SD rats (5 ~ 6 weeks, 3/group/sex) were randomly allocated to three treatment groups and given the same dosage as those in the repeated toxicity experiment for 28 days. […] Carbamazepine was chosen as the internal standard (IS). The blood samples were centrifuged to obtain plasma. Then, 300 μL of acetonitrile containing 40 ng of IS was added to 100 μL of plasma. After vortexing for 1 min, the mixture was centrifuged at 17,000 rpm for 15 min at 4 °C. The supernatant of each sample was injected into a UPLC–MS/MS system for determination. The injection volume was 1 μL. UPLC–MS analysis was performed on a Thermo Fisher Scientific Ultimate 3000 UPLC system (San Jose, USA) and an API 4000 QTRAP mass spectrometer (Foster City, USA) equipped with an ESI source. The mobile phase consisted of 2 solvents: (A) water containing 0.1% formic acid and (B) 100% acetonitrile. For MS, multiple reaction monitoring (MRM) in positive ion mode was used as the scanning mode for the main components and IS in the plasma samples. The dwell time (DT), collision energy (CE), quadrupole 1 pre-rod bias (Q1) and quadrupole 3 pre-rod bias (Q3) are listed in Table 3.
substance,measurement,value
evodiamine,Level in plasma,< 0.5 ng/mL
